{
  "source": "patent US20260069581A1",
  "about": "“METHODS AND COMPOSITIONS FOR CANCER THERAPY” (OHIO STATE INNOVATION FOUNDATION, priority 2020, published 2026)",
  "origin": "cited, not measured here",
  "target": "T1, HDAC8 (Homo sapiens, UniProt Q9BY41)",
  "T1 sequence (Q9BY41 1-377)": "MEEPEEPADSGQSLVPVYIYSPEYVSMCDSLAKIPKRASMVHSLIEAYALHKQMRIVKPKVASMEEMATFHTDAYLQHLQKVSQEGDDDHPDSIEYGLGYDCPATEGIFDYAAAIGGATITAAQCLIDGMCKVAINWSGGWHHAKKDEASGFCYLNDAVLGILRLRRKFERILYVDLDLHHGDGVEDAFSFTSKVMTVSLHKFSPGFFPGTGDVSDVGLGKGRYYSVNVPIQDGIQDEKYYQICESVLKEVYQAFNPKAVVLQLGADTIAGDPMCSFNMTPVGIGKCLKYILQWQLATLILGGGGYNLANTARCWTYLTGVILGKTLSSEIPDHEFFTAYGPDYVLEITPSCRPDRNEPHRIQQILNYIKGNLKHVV",
  "conditions": "Ref. 25; cited from earlier work",
  "data": [
    {"compound": "COc1ccc(Cn2ccc3ccc(C(=O)NO)cc32)cc1", "note": "[PCI-34051]", "values": [
      {"measurement": "selectivity for HDAC8 over other HDAC isoforms", "value": "> 200", "unit": "fold"}
    ]}
  ]
}
